In US9958439B2, “Carbohydrate detection” (RICHTER LIFE SCIENCE DEVELOPMENT AB, priority 2012, dated 2018):

Tested on: biofilm (curli, cellulose) of S. enteritidis wt strain 3934 and isogenic mutants
Settings: present in the growth medium throughout the experiment

## hepta Hydrogen Thiophene Acetic Acid [h-HTAA]
  bactericidal property of the probe in growth medium: non-bactericidal
